Experimental findings from ChEMBL document CHEMBL3244331, “2,6-Methano-3-benzazocine-11-ropanols. Lack of antagonism between optical antipodes and observation of potent narcotic antagonism by two n-methyl derivatives” (1978) are described below.

Values joined by “and” are separate entries in the source; they are usually repeats but may differ in a detail not shown here. Equal entries are not always repeated.

For one experiment, the system named is Mus musculus. Kind of experiment: Narcotic agonist activity in sc dosed mouse by acetylcholine writhing test. Background: An intraperitoneal irritant provokes the stretching counted in writhing tests.
The test system of experiment [1] is Rattus norvegicus. The experiment is described as follows: Narcotic antagonist activity in sc dosed rat assessed as antagonism of phenazocine response by tail flick assay. (Thermal pain tests record how soon the animal reacts.)
The species entered for experiment [2] is Rattus norvegicus. The experiment is described as follows: Ratio of nalorphine AD50 to compound AD50 for antagonism of phenazocine response in rat.

Usually ED50 stands for the dose that gives a 50% effect, or the effect in half of the subjects. A high value points to weaker potency.

Turning to `C=CCN1CC[C@]23c4c5ccc(O)c4O[C@H]2[C@@H](O)C=C[C@H]3[C@H]1C5`, in the experiment on Mus musculus, the 50% effect level (ED50) was put at a dose of 2.8 mg/kg. In the experiment on Rattus norvegicus [1], the AD50 is 0.1 mg/kg.

Consider `CC(C)CCC(C)(O)CC[C@]1(C)[C@H]2Cc3ccc(O)cc3[C@@]1(C)CCN2C` (stereo partly specified), for which the ED50 in the experiment on Mus musculus is 22 mg/kg and 14 mg/kg. Also, the Ratio in the experiment filed under Rattus norvegicus [2] is 3 and 5. Moreover, in the experiment on Rattus norvegicus [1], the AD50 was 0.032 mg/kg and 0.02 mg/kg.

Consider `CO[C@@]12CC[C@@]3(C[C@@H]1[C@](C)(O)C(C)(C)C)[C@H]1Cc4ccc(O)c5c4[C@@]3(CCN1CC1CC1)[C@H]2O5`, for which the ED50 in the experiment with Mus musculus is 0.058 mg/kg.
